Assay [1] relates to COLO 320. The assay can be described thus: Cytotoxicity against Homo sapiens (human) COLO320 cells by MTT assay. In kind it is functional, cell-based.
A short description of assay [2]: Antioxidant activity assessed as reduction of Fe3+ to Fe2+ after 4 min by spectrophotometric analysis relative to butylated hydroxytoluene. In kind it is functional.

The structures appear in SMILES notation.

One compound from ChEMBL document CHEMBL3045925, “Isolation of terrestribisamide from Peltophorum pterocarpum (DC.) Baker ex. K. Heyne and its antimicrobial, antioxidant, and cytotoxic activities” (Med Chem Res, 2013) can be followed below.

Consider `COc1cc(/C=C/C(=O)NCCCCNC(=O)/C=C/c2ccc(O)c(OC)c2)ccc1O` [TERRESTRIBISAMIDE], for which the Activity entry in assay [1] is “Dose-dependent effect”. Moreover, the fold change (FC) in assay [2] turned out to be 3.
